# Assays:
# [1] = test system: PC9 cells containing the EGFR-T790M mutation; test: CRISPR-barcoding qPCR: fraction of EGFR-T790M barcode in PC9 cells in the presence of gefitinib; assay type: cell-based; settings: 5 days, FIG. 1A
# Description: (§1) Cells were transfected with a Nucleofector II device (Lonza) using the Amaxa Nucleofector kit (Lonza) and electroporation program recommended by the manufacturer.
# (§2) The set of silent mutations is designed to enable PCR specificity and to avoid recognition by the corresponding sgRNA used to cleave the endogenous sequence. […] Immediately after transfection, the cells were pooled in the same flask.
# (§3) gDNA was extracted using the NucleoSpin Tissue kit (Macherey-Nagel). To avoid potential amplification from ssODN molecules not integrated in the correct genomic locus, one of the two primers was designed to target the endogenous genomic sequence flanking the region sharing homology with the ssODNs.
# as §1, §2
# EGFR = test: Immunoblot, EGFR expression in PC9 cells; assay type: cell-based
# MAPK, AKT and mTOR = test: Immunoblot, downstream pathways regulated by EGFR in PC9 cells; assay type: cell-based; settings: after three days of sorafenib (5 μM) treatment, FIG. 5
# [2] = test system: EGFR-C797S cells within PC9-(EGFR-T790M) cells; test: Colony forming assay, EGFR-C797S barcoded PC9-(EGFR-T790M) cells; assay type: cell-based; settings: sorafenib 5 μM co-treatment with osimertinib 1 μM, 14 days; FIG. 3B
# [3] = test system: EGFR-C797S cells within PC9-(EGFR-T790M) cells; test: CRISPR-barcoding qPCR: EGFR-C797S barcode in PC9-(EGFR-T790M) cells; assay type: cell-based; settings: sorafenib 5 μM co-treatment with osimertinib 1 μM, nine days; FIG. 3A
# Description: as §2, §3
# [4] = test system: LIM1215 colon cancer cells containing the EGFR-G465R mutation; test: CRISPR-barcoding qPCR: EGFR-G465R barcode in LIM1215 colon cancer cells; assay type: cell-based; settings: sorafenib 1 or 5 μM with cetuximab 20 μg/ml, six days; FIG. 13
# Description: as §1, §2, §3
# [5] = test system: Parental PC9 cells (EGFR-T790 wild-type) containing the EGFR-C797S mutation; test: CRISPR-barcoding qPCR: EGFR-C797S barcode in parental PC9 cells (EGFR-T790 wild-type); assay type: cell-based; settings: PC9 cells not previously selected with other EGFR TKIs; osimertinib 1 μM, sorafenib 5 μM, nine days; FIG. 12
# Description: as §2, §3
# colorectal carcinoma = settings: treatment of colorectal carcinoma; Cunningham et al 2004; cited from earlier work
Molecule,"enrichment of PC9 cells containing the EGFR-T790M mutation (EGFR-T790M barcode, qPCR from gDNA) [1]","EGFR expression (EGFR; 3 days, sorafenib 5 μM or SC-1 20 μM, FIG. 11B)","EGFR expression (EGFR; after three days of sorafenib (5 μM) treatment, FIG. 5)","downstream pathways regulated by EGFR, including MAPK, AKT and mTOR (MAPK, AKT and mTOR)",amplification of EGFR-C797S cells (colony forming assay) [2],amplification of EGFR-C797S cells (qPCR) [3],enrichment of the EGFR-G465R barcode induced by cetuximab (qPCR) [4],enrichment of EGFR-C797S cells induced by osimertinib (qPCR) [5],clinical response rate (colorectal carcinoma)
CNC(=O)c1cc(Oc2ccc(NC(=O)Nc3ccc(Cl)c(C(F)(F)F)c3)cc2)ccn1 [sorafenib],dose-dependently prevented the enrichment,down-regulated,dramatic decrease,inhibition,blocked,blocked,inhibited by sorafenib in a dose-dependent manner,strongly inhibited the enrichment,
cetuximab,,,,,,,,,about 11%

# — US20200237736A1, “METHODS FOR PREVENTING OR TREATING CANCER RESISTANCE TO EGFR INHIBITION” (INSERM (INSTITUT NATIONAL DE LA SANTE ET DE LA RECHERCHE …, priority 2017, published 2020)
